Test results from publication doi:10.1101/2025.11.02.686125v3 (bioRxiv, 2025).

Row | Endpoint accumulation (luminescence at 60 min) (Msm (luc) cells) | Apparent cytosolic accumulation (luminescence over 60 min) (Mav (luc) cells) | Substance
1 | comparable |  | D-cystine-ciprofloxacin-methyl-ester [cys-Cipro]
2 | comparable |  | Linezolid-cystamine-D-cysteine disulfide [cys-Line]
3 |  | highest apparent accumulation | Puromycin-cystamine-D-cysteine disulfide [cys-Puro]
4 | slightly higher accumulation |  | Rifamycin-cystamine-D-cysteine disulfide [cys-Rifa]
